Experimental data reported in paper PMC7723054.
The list shows a part of the results.

Tests used:
Test in all cases: FOREST: bead pull-down of RNA structure library v1, barcode microarray; U1A/LIN28A: 20 mM HEPES pH 7.5, 80 mM KCl, 20 mM NaCl, 10% glycerol, 2 mM DTT, 0.1 ug/uL BSA, 4 C; BG4/CIRBP/DHX36: 10 mM Tris-HCl pH 7.5, 100 mM KCl (or LiCl),; high values mean tight binding
U1A = U1A (Homo sapiens, UniProt P09012)
LIN28A = molecular target: T1, LIN28A (human?, UniProt Q9H9Z2 1-209)
T1 sequence: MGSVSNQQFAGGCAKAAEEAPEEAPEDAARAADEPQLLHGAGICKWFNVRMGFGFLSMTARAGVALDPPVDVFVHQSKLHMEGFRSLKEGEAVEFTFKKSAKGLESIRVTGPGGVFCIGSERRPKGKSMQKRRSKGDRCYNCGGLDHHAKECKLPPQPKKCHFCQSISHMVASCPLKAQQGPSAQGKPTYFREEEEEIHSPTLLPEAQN

CIRBP = molecular target: T2, CIRBP (Homo sapiens, UniProt Q14011 1-172)
T2 sequence: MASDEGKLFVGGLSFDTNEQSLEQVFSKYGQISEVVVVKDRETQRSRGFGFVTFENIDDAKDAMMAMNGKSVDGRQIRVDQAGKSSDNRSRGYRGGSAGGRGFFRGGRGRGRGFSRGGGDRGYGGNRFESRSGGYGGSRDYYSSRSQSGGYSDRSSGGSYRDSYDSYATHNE

DHX36 = molecular target: T3, DHX36 (Homo sapiens, UniProt Q9H2U1 1-1008)
T3 sequence: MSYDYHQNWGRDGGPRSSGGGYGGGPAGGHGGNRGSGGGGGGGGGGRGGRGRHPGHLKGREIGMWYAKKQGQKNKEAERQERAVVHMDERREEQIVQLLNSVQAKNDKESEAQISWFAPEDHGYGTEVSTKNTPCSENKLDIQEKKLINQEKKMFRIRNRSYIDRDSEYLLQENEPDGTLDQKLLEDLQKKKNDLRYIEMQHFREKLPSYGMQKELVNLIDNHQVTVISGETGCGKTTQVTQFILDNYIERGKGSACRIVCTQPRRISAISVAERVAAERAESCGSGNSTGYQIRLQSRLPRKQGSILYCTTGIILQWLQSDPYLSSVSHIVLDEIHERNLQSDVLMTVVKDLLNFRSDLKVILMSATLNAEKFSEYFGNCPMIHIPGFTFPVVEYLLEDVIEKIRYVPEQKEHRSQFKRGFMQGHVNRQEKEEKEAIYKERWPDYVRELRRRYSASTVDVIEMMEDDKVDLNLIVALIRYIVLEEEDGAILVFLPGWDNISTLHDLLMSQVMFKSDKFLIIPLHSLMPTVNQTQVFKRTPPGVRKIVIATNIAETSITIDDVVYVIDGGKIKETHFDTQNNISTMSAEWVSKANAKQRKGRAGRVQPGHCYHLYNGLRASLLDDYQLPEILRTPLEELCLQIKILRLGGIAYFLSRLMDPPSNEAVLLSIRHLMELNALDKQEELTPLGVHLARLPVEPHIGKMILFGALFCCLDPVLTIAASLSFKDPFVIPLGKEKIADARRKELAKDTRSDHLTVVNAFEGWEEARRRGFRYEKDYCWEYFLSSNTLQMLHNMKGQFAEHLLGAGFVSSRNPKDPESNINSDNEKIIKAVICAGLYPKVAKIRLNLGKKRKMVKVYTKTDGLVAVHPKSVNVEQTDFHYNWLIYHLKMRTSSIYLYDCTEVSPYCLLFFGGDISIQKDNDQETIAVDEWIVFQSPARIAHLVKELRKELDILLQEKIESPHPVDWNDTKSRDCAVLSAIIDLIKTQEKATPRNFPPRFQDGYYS

B1: hsa-mir-4791 (structured_RNA)
RNA: GGGAAAUUCUGCGGACCUCACUAAUGCGGGUGUACGAAGUUUCAGCAAAUAAGCUCCAUAUCAAUGAGAAUUUCAAUGGGAUUAUGUGGCUGAAGCUUCGUGCAC
- binding signal (U1A): 0.418 z-score
- binding signal (LIN28A): 0.133 z-score
- binding signal (CIRBP): 0.271 z-score
- binding signal (DHX36): -0.508 z-score

B2: hsa-mir-615 (structured_RNA)
RNA: GGGCCGUGGUUAUCCCCAACAGUUUGUGGGUGUACGAAGUUUCAGCCGGAUCUCGAGGGUGCUUAUUGUUCGGUCCGGCUGAAGCUUCGUGCAC
- binding signal (U1A): 0.416 z-score
- binding signal (LIN28A): 1.42 z-score
- binding signal (CIRBP): 0.786 z-score
- binding signal (DHX36): -0.0271 z-score

B3: NEAT1_ParasoR_ID51 (structured_RNA)
RNA: GGGAACCCAAGUAGUCGAACAAGAGCCAGGUGUACGAAGUUUCAGCGAUGGCUUUGAGGUUAUUUGCAGUUUCCUAGCCAUCGCUGAAGCUUCGUGCAC
- binding signal (U1A): 0.143 ± 0.384 z-score
- binding signal (LIN28A): 0.533 ± 0.758 z-score
- binding signal (CIRBP): 0.969 ± 0.377 z-score
- binding signal (DHX36): -0.165 ± 0.162 z-score

B4: hsa-mir-1468 (structured_RNA)
RNA: GGGAAGUAUCCACGACAGAACUAUGCAGGGUGUACGAAGUUUCAGCCGCUGAUGUGCAUUCAACUCAUUCUCAGCAGCUGAAGCUUCGUGCAC
- binding signal (U1A): 0.414 z-score
- binding signal (LIN28A): -0.111 z-score
- binding signal (CIRBP): 0.709 z-score
- binding signal (DHX36): -0.28 z-score

B5: hsa-mir-6878 (structured_RNA)
RNA: GGGAAAAUUCCCAAGUACCUCUGGUCACGGUGUACGAAGUUUCAGCGAAGAUUCUGAAAAUCACUAACUGCUGAAGCUUCGUGCAC
- binding signal (U1A): 0.413 z-score
- binding signal (LIN28A): -0.806 z-score
- binding signal (CIRBP): 0.524 z-score
- binding signal (DHX36): -0.398 z-score

B6: hsa-mir-662 (structured_RNA)
RNA: GGGAGGCCCAACUUAGAAUAAUGCGACAGGUGUACGAAGUUUCAGCGGGGUGGCUGCGGGCCUUCUGAAGGUCUCCCGCUGAAGCUUCGUGCAC
- binding signal (U1A): 0.413 z-score
- binding signal (LIN28A): 0.586 z-score
- binding signal (CIRBP): 0.419 z-score
- binding signal (DHX36): 0.604 z-score

B7: hsa-mir-6871 (structured_RNA)
RNA: GGGAACGGCUUCUCUCAUCGCACAUCUAGGUGUACGAAGUUUCAGCGGUUGCUGGAGGUCAGCGCUGAAGCUUCGUGCAC
- binding signal (U1A): 0.411 z-score
- binding signal (LIN28A): 0.869 z-score
- binding signal (CIRBP): 0.673 z-score
- binding signal (DHX36): 0.308 z-score

B8: hsa-mir-5708 (structured_RNA)
RNA: GGGACGGGAAGUAUAAGCUUGUCUCCCGGGUGUACGAAGUUUCAGCGACCAAAAGUCAACAUUAAACAACAAAUCUUGGCCGCUGAAGCUUCGUGCAC
- binding signal (U1A): 0.408 z-score
- binding signal (LIN28A): -0.158 z-score
- binding signal (CIRBP): -0.278 z-score
- binding signal (DHX36): 0.22 z-score

B9: hsa-mir-2052 (structured_RNA)
RNA: GGGAACGAGCACUUAGUGGCUUUCCAAGGGUGUACGAAGUUUCAGCAUGUCCCUUUAGUUCAAAGUGCUGAAGCUUCGUGCAC
- binding signal (U1A): 0.406 z-score
- binding signal (LIN28A): -0.504 z-score
- binding signal (CIRBP): -0.734 z-score
- binding signal (DHX36): -0.961 z-score

B10: hsa-mir-4786 (structured_RNA)
RNA: GGGAAUCAGUGCCAGUGCCCGGUAUAAAGGUGUACGAAGUUUCAGCUGCACCACUCUCCCUGUGAUGAGGUGAAGCUGAAGCUUCGUGCAC
- binding signal (U1A): 0.404 z-score
- binding signal (LIN28A): -1.27 z-score
- binding signal (CIRBP): -0.567 z-score
- binding signal (DHX36): 0.41 z-score

B11: hsa-mir-28 (structured_RNA)
RNA: GGGAGAAGGCAAUCCCGAGCGAUACUCUGGUGUACGAAGUUUCAGCAUUGAGUUACCUUUCUGACUUUCCCACUGCUGAAGCUUCGUGCAC
- binding signal (U1A): 0.403 z-score
- binding signal (LIN28A): 0.299 z-score
- binding signal (CIRBP): 0.246 z-score
- binding signal (DHX36): -0.533 z-score
